Laboratory results reported in US20230241256A1, “NON-INTUITIVE COMBINATION OF DRUG DELIVERY CARRIERS OF THE SAME DRUG FOR SYNERGISTIC GROWTH DELAY OF SOLID TUMORS” (The Johns Hopkins University, priority 2020, published 2023).

Key:
[1] = design: species or system mice; settings: mouse, in vivo, iv
Method: Upon tumors reaching 50 mm^3, mice were randomly assigned to a group. […] The total mass of antibody was kept constant at 15 μg/mouse. Every other day, mice were weighed, and tumor volumes were measured with a digital caliper (resolution 0.01 mm).

[2] = tested on: HER2-overexpressing BT474 breast cancer spheroids; assay: Spheroid outgrowth assay, BT474; assay type: cell-based, human; settings: 100-μm radius; 9.25 kBq/mL total
Method: As an indirect surrogate of tumor recurrence, an outgrowth assay was performed on HER2-overexpressing BT474 breast cancer spheroids, and HER1-moderately expressing MDA-MB-231 triple negative breast cancer spheroids. Spheroids were treated with ^225Ac-DOTA NP, ^225Ac-DOTA-SCN-Ab, or the cocktail containing the combination of ^225Ac-DOTA NP and ^225Ac-DOTA-SCN-Ab (NP+Ab). Upon exposure to treatment (6 and 24 hours for NPs and Abs, respectively, to match their corresponding circulation half-lives in mice), spheroids were plated on adherent surfaces and cells were allowed to grow. The cells were counted when the cells from untreated spheroids reached confluency. The number of live cells was then reported as % outgrowth relative to the counted numbers of cells that received no treatment.
Spheroids were incubated for 6 hours with [^225Ac]Ac-DOTA-loaded liposomes (1-mM total lipid) and/or 24 hours with [^225Ac]Ac-DOTA-SCN-Trsastuzumab (10 μg/mL). Upon completion of incubation, spheroids were transferred to fresh media and the spheroid volume was monitored until the non-treated spheroids stopped growing (17 days later) at which point spheroids were individually plated on cell culture treated, flat-bottom 96-well plates and were allowed to grow. […]

[3] = tested on: Trastuzumab-sensitive BT474 breast cancer cells; assay: Clonogenic (colony) survival, BT474; assay type: cell-based, human; settings: 6 hour incubation at 37° C.; pH 7.4 or 6.0; monolayers
Method: (§1) FIG. 9A, FIG. 9B, FIG. 9C, and FIG. 9D show colony survival of Trastuzumab-sensitive BT474 (top panel, FIG. 9A and FIG. 9B, 1.50±0.10×10^6 HER2 copies/cell) and Trastuzumab-resistant BT474-R (lower panel, FIG. 9C and FIG. 9D, 0.93±0.04×10^6 HER2 copies/cell) breast cancer cells following a 6 hour incubation at 37° C. with free [^225Ac]Ac-DOTA (gray symbols), tumor-responsive liposomes loaded with [^225Ac]Ac-DOTA (black symbols) and radiolabeled Trastuzumab ([^225Ac]Ac-DOTA-SCN-Ab) (white symbols) at extracellular pH values of 7.4 (FIG. 9A and FIG. 9C) or 6.0 (FIG. 9B and FIG. 9D, as the lowest expected acidic value of the tumor interstitial pHe). Radiolabeled Trastuzumab's specific activity was 2.9 MBq/mg (78.3 μCi/mg) at the highest radioactivity concentration. Cold conditions of liposomes and the antibody are indicated at zero radioactivity concentration. Error bars correspond to standard deviations of repeated measurements (4-6 samples per radioactivity concentration);
(§2) After incubation for 6 hours of cell monolayers with varying concentrations of radioactivity, the cells were washed and were plated in dishes to grow until formation of colonies, as described in detail in Prasad et al., 2021.

[4] = tested on: Trastuzumab-resistant BT474-R breast cancer cells; assay: Clonogenic (colony) survival, BT474-R; assay type: cell-based, human; settings: 6 hour incubation at 37° C.; pH 7.4 or 6.0; monolayers
Method: as §1, §2

Substance | mean tumor uptake of injected radioactivity [1] | suppression of spheroid outgrowth, small spheroids [2] | colony survival response [3] | colony survival response [4]
[^111In]In-DTPA-SCN-Trastuzumab: Trastuzumab radiolabeled with Indium-111, surrogate of the 225Ac-labeled antibody for biodistribution | significantly greater mean tumor uptake | – | – | –
[^225Ac]Ac-DOTA-SCN-Trastuzumab: HER2-targeting antibody Trastuzumab radiolabeled with Actinium-225 via p-SCN-Bn-DOTA | – | most efficient | comparable survival responses | comparable survival responses
